# Test: Figure 7f: response to FBS, CXCL12, opioid peptides and LIH383 relative to Medium
# Assay type: cell-based
# Settings: Medium about 1; replicate 3
substance,measurement,value
CXCL12,Figure 7f value,1.165

# Reference: paper PMC7305236, “The atypical chemokine receptor ACKR3/CXCR7 is a broad-spectrum scavenger for opioid peptides” (Nature Communications, 2020)
